US20150366852A1, “Prevention of Obesity in Antipsychotic, Antidepressant and Antiepileptic Medication” (N-Gene Research Laboratories, Inc., priority 2006, published 2015)

Tested on: female Wistar rats
Conditions: 28 days; for Average weight relative to the control group (in words): compound alone

SMILES | Average weight relative to the control group (in words) | Effect on the weight gain induced by olanzapine (in words) (together with olanzapine 1 mg/kg)
CN(C)C(=N)N=C(N)N [Metformin] | somewhat higher average weight | did not reduce
Cc1cc2c(s1)Nc1ccccc1N=C2N1CCN(C)CC1 [Olanzapine, 2-methyl-4-(4-methyl-1-piperazinyl)-10H-thieno[2,3-b][1,5]-benzodiazepine] | significantly greater average weight than the control group | 
